Experimental data as given in PubChem BioAssay AID488924 (Johns Hopkins Ion Channel Center, 2010).
Only a part is listed here, and it is no random draw. Some tests of the compounds listed are not included; inactive here does not mean inactive elsewhere. The source made the active and inactive calls.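 How the source made its calls: active means membrane potential signal moves up or down beyond 5 SD from buffer-only wells, on both duplicate plates; inactive means the rest.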

Experiment: nonspecific voltage dye response without TRPC6 – cell-based, parental HEK293, counter-screen for TRPC6 modulator project, confirmation (AID 488924)
Conditions: parental HEK293, membrane potential dye fluorescence; at 10 µM

SMILES	membrane potential signal change
CN1[C@@H]2CC[C@H]1CC(OC(=O)C(O)(c1ccccc1)c1ccccc1)C2 (some centres not stated)	inactive
CCN(CC)CC(C)C(C)OC(=O)C(O)(c1ccccc1)c1ccccc1 (configuration not stated)	active: 142%
